Assay results from PubChem BioAssay (Tox21).
Where “and” joins values, the source holds several entries; their conditions need not be identical. Equal values may be shown once. The entries are a selection whose mix differs from that of the whole data set. Records with an inconclusive call do not appear. Calls of active or inactive are those of the source. Unless noted, calls come from the whole dose curve.

The chains behind the UniProt entries cited, without tags or fusion partners.
UniProt P30968, whole entry: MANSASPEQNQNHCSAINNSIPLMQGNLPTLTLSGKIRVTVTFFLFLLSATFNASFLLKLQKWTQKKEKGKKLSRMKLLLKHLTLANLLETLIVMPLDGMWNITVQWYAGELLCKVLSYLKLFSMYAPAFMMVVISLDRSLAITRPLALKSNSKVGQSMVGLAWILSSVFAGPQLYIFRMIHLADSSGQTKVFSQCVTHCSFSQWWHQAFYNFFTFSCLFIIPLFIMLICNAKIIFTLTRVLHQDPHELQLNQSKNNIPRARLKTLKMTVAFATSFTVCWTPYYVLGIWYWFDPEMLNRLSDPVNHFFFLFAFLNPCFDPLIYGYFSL

Assays:
[1] = Nuclear factor erythroid 2-related factor 2/antioxidant responsive element (Nrf2/ARE) small molecule agonists: qHTS cell viability counter screen in human keratinocytes (AID 1919968; active = well fitted cell-killing curve with a large enough effect in the repeat runs; note: potency is the fitted concentration of half-maximal effect; nearly all actives have a fitted effect of over 55% in size); conditions: KeratinoSens HaCaT ARE cells viability, CellTiter-Fluor, 24 h
Outline: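 In human HaCaT keratinocytes stably expressing an ARE-driven luciferase, compound exposure lasted 23 h at 37 C under 5% CO2. Viable cells are quantified with a protease-based fluorogenic reagent (CellTiter-Fluor) read 1 h after addition.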

[2] = Nuclear factor erythroid 2-related factor 2/antioxidant responsive element (Nrf2/ARE) small molecule agonists: luciferase reporter gene qHTS assay in human keratinocytes (AID 1919969); conditions: KeratinoSens HaCaT ARE-luciferase, luminescence, 24 h; note: potency is the fitted concentration of half-maximal effect; nearly all actives have a fitted effect of over 35% in size
[3] = target: Gonadotropin-releasing hormone receptor (Homo sapiens) (UniProt P30968); assay: Human gonadotropin-releasing hormone receptor (GnRHR) small molecule agonists, calcium flux assay in GnRHR-HEK293 cells (AID 1920063); conditions: calcium flux fluorescence, agonist mode, hits give high values; at 57.6 µM (top of the series); note: % is set by controls: 0 for no effect and ±100 for the full control effect; nearly all actives have a fitted effect of over 35% in size
Excerpt: National Center for Advancing Translational Sciences [NCATS]
Division of Preclinical Innovation [DPI]
U.S. Environmental Protection Agency [EPA]
National Institutes of Environmental Health Sciences [NIEHS]
National Toxicology Program [NTP]
U.S. Food and Drug Administration [FDA]
Gonadotropin-releasing hormone receptor (GnRHR) is a G-protein-coupled receptor (GPCR) and acts (through phospholipase C) to increase intracellular inositol trisphosphate and then release intracellular calcium stores. Cell-based GnRHR-Hek293 calcium influx assay is using HEK293 cells that have been genetically engineered to express the human GnRHR, which activity can be measured by calcium signaling. A compound/drug can activate (agonist) GnRHR that can be monitored by levels of intracellular calcium.
GnRHR-HEK293 cells developed by Codex Corp contain human GnRHR reporter gene, which was stably integrated into HEK 293 cells. The compound activation can be detected by fluorescence intensity via calcium flux assay. […]
GnRHR-Hek293 cells were dispensed at 1500cells/4uL/well in 1536-well black wall/clear bottom plates using a multidrop dispenser. […] The fluorescence intensity in the plates was measured using FDSS 7000EX kinetic plate reader with a filter set of Ex/Em=480/540 for 3 min at 1 sec intervals. Each test compound was measured at 15 concentrations and in triplicates.

Row | SMILES | Potency [1] | Potency [2] | activity change [3]
1 | CN(CCCl)CCCl | active: 43.2 µM | active: 24.3 µM and active: 29.8 µM | 
2 | CCC(=O)N(c1ccccc1)C1(COC)CCN(CCn2nnn(CC)c2=O)CC1 |  |  | inactive: -2.54%
